{"source": "patent US20230025880A1", "about": "“FUSED TRICYCLIC COMPOUND AND MEDICINAL USE THEREOF” (JAPAN TOBACCO INC., priority 2020, published 2023)", "data": [{"target": "human PDHK2 (hPDHK2) (Homo sapiens, UniProt Q15119)", "test": "Inhibitory action of PDHK2 activity (residual PDH activity, NADH absorbance at 340 nm)", "conditions": "read-out: hPDHK2 IC50; PDH/hPDHK2 complex, PDHK reaction 45 min at room temperature", "procedure": "In the case of human PDHK2 (hPDHK2, NCBI Reference Database Accession number NM_002611.4), modified hPDHK2 cDNA wherein FLAG-Tag sequence was added to the N terminus of hPDHK2 cDNA clone (pReceiver-M01/PDK2-GeneCopoeia) as the base was prepared by polymerase chain reaction (PCR) and ligated to the NdeI/EcoRI site of pET-17b vector (Merck KGaA, Catalog Number 69663-3). The recombinant construct was transformed into Escherichia coli DH5α. The recombinant clones were identified, and plasmid DNA was isolated and subjected to the DNA sequence analysis. One clone which had the expected nucleic acid sequence was selected for expression work.\nFor expression of hPDHK2 activity, Escherichia coli strain BL21(DE3) cells (Merck KGaA, Catalog Number 69450-4) were transformed with the pET17b vector containing modified hPDHK2 cDNA. The Escherichia coli were grown to an optical density 0.6 ([…]) at 30° C. Protein expression was induced by the addition of 500 μmol/L isopropyl-β-thiogalactopyranoside. The Escherichia coli were cultured at 20° C. for 17-18 hr and harvested by centrifugation. The harvested Escherichia coli was resuspended in a suspension buffer (20 mmol/L HEPES-NaOH, 500 mmol/L sodium chloride, 1% ethylene glycol, 0.1% Pluronic (registered trademark) F-68 (pH 8.0), cOmplete, EDTA-free (Roche) (pH 8.0)), and disrupted by a microfluidizer M-110H (MIZUHO INDUSTRIAL CO., LTD.). The precipitate was removed by centrifugation and the supernatant was added to DDDDK-tagged Protein PURIFICATION GEL (MEDICAL & BIOLOGICAL LABORATORIES CO., LTD., Code No. 3329). DDDDK-tagged Protein PURIFICATION GEL was washed with a washing buffer (20 mmol/L HEPES-NaOH, 500 mmol/L sodium chloride, 1% ethylene glycol, 0.1% Pluronic F-68 (pH 8.0)) and the bound protein was eluted with elution buffer 1 (20 mmol/L HEPES-NaOH, 100 μg/mL peptide (amino acid sequence DYKDDDDK) (SEQ ID NO: 1), 500 mmol/L sodium chloride, 1% ethylene glycol, 0.1% Pluronic F-68 (pH 8.0)). […]", "units": {"IC50": "nM"}, "values": [{"smiles": "C[C@H]1Cn2c(nnc2C(F)(F)c2ccc(F)cc2)-c2cnc([C@@](C)(O)C(F)(F)F)n21", "IC50": 9.1}, {"smiles": "C[C@H]1Cn2c(nnc2C2CCC(F)(F)CC2)-c2cnc([C@@](C)(O)C(F)(F)F)n21", "IC50": 7.5}, {"smiles": "C[C@H]1Cn2c(nnc2C(F)(F)C(F)(F)F)-c2cnc([C@@](C)(O)C(F)(F)F)n21", "IC50": 20}]}]}
